Assay [1] addresses T1, δ-opioid receptor (Mus musculus, UniProt P32300). The conditions noted are these: cited from earlier work.
Assay [2] deals with T1, δ-opioid receptor. Put plainly: Effect on deltorphin C stimulated GTPγS binding in NG108-15 cell membranes. Format: biochemical.

The chains behind the UniProt entries cited, without tags or fusion partners. Where a name states a change or a piece, a line headed by the entry shows the natural chain unless it says otherwise.
UniProt P32300, whole entry: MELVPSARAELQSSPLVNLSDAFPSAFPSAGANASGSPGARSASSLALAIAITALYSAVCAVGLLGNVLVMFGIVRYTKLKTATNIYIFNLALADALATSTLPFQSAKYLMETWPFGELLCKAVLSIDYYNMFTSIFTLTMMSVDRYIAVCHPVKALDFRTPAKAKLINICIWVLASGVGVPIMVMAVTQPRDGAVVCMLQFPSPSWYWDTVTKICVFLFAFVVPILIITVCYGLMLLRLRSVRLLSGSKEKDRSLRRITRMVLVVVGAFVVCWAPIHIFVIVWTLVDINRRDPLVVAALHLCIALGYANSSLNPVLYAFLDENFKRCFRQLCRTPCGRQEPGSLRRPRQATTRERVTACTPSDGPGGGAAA

Structures are written as SMILES. Where two headings read alike, the source gives them in different places.

`Cc1cc(O)cc(C)c1C[C@H](N)C(=O)N1Cc2ccccc2C[C@H]1C(=O)O` [compound 5, H-Dmt-Tic-OH]: the “pA2 δ” value in assay [1] (antagonism of Deltorphin C in vitro) and in assay [1] (δ-antagonism in vitro) was 8.48 throughout. For the compound `Cc1cc(O)cc(C)c1C[C@H](N)C(=O)N[C@H]1Cc2ccccc2CN(CC(=O)NCCNC(=O)CN2Cc3ccccc3C[C@H](NC(=O)[C@@H](N)Cc3c(C)cc(O)cc3C)C2=O)C1=O` [compound 10, ethylene-bis(H-Dmt-Aba-Gly-NH)], in assay [2], the Kb was 18.2 nM. In addition, the “GTPγS (pA2)δ” value in assay [2] (antagonism of deltorphin C stimulated GTPγS binding, NG108-15 cell membranes, NA: not active (>20.000nM)) is given as 7.74.

In the case of `Cc1cc(O)cc(C)c1C[C@H](N)C(=O)N1Cc2ccccc2C[C@H]1C(=O)NCC/C=C/CCNC(=O)[C@@H]1Cc2ccccc2CN1C(=O)[C@@H](N)Cc1c(C)cc(O)cc1C` [compound 14, 1,6-(hex-3-ene)bis(H-Dmt-Tic-NH)], the Kb in assay [2] is 1.15 nM.

The values are drawn from publication PMC2840614 (Bioorganic & medicinal chemistry letters, 2010).
